In US9700603B2, “Use of antidotes to coagulation inhibitors indicated in the prevention or treatment of thromboembolic pathologies” (LABORATOIRE FRANCAIS DU FRACTIONNEMENT ET DES …, priority 2013, dated 2017):

Columns and labels:
Type in all cases: biochemical
[1] = test system: normal plasma pool; test: Prothrombin time (PT) with RecombiPlastin
[2] = test system: thrombin generation in normal plasma pool; test: Thrombin generation test (TGT Fluoroskan), extrinsic pathway, TF 1 pM / PL 4 μM
Method: The stock solution of rivaroxaban at 436 μg/mL is diluted in 5% DMSO in order to obtain intermediate concentrations which, added to the NPP (Normal Pool Plasma), give final concentrations of rivaroxaban in μg per mL of plasma.
FX or FXa are introduced into the plasma without an incubation step.
(§1) The thrombin generation test consists of activating coagulation ex vivo either using a mixture of tissue factor and phospholipids, or using cephalin and then measuring the concentration of thrombin generated over time.
The thrombin generation tests are carried out on 80 μl of a plasma pool optionally containing FX and/or Rivaroxaban in the presence either of 20 μl of PPP reagent (Stago) finally containing 5 pM of Tissue Factor (TF) and 4 μM of phospholipids (PL), or in the presence of 20 μL of cephalin (CK-Prest reconstituted with 5 mL of distilled H2O).
(§2) The reaction is started by the addition of 20 μL of Fluca-kit (substrate+CaCl2) which constitutes the start of the measurement of the appearance of thrombin. The appearance of fluorescence is measured on a fluorometer of the Fluoroskan Ascent type (ThermoLabsystems) at an excitation wavelength of 390 nm and emission wavelength of 460 nm. The thrombinograms (curves representing the intensity of fluorescence as a function of time) are then analyzed using the Thrombinoscope™ software which converts the fluorescence value to nM of thrombin by comparative calculation.

[3] = test system: thrombin generation in normal plasma pool; test: Thrombin generation test (CAT), intrinsic pathway, cephalin alone
Method: as §1, §2
The reagents, the automated equipment and the experimental protocol are identical to those described in Example 1.
The thrombin generation tests are carried out on 80 μl of a normal plasma pool optionally containing FX and/or Rivaroxaban in the presence of 20 μl of cephalin (CK-Prest reconstituted with 5 mL of distilled H2O) and 20 μL fluca-kit (substrate+CaCl2).

[4] = FX (HTI) 10 μg/mL final in PNP + rivaroxaban 0.5 μg/ml
[5] = 10 μg/mL of FX added to normal plasma
[6] = FX 25 μg/ml added to normal plasma
[7] = FX 100 μg/ml added to normal plasma
[8] = FX (HTI) 25 μg/mL in PNP + rivaroxaban 0.5 μg/mL
[9] = FX (HTI) 100 μg/mL in PNP + rivaroxaban 0.5 μg/mL

FX (HTI): commercial human factor X (HTI), stock at 6.8 mg/mL; inactive zymogen of factor Xa
PT (RecombiPlastin ISI: 1.0) ([1]; FX (HTI) 10 μg/mL final in PNP): 11.1 s
PT (RecombiPlastin ISI: 1.0) [1, 4]: 29.3 s
increase of height of the peak versus normal plasma [2, 5]: 7.3%
increase of total quantity of thrombin generated (ETP) versus normal plasma [2, 5]: 13%
correction of plasma overloaded with rivaroxaban ([2]; FX 10 μg/mL final, rivaroxaban 0.5 μg/mL, 1 pM TF): does not correct
increase of height of the peak versus normal plasma [2, 6]: 9.5%
increase of total quantity of thrombin generated versus normal plasma [2, 6]: 13%
increase of height of the peak versus normal plasma [2, 7]: 37%
increase of total quantity of thrombin generated versus normal plasma [2, 7]: 16%
ETP (endogenous thrombin potential) ([2]; FX (HTI) 10 μg/mL final in PNP): 1244 nM·min
LT (lag time) ([2]; FX (HTI) 10 μg/mL final in PNP): 6.33 min
Peak ([2]; FX (HTI) 10 μg/mL final in PNP): 136.38 nM
ST (start time) ([2]; FX (HTI) 10 μg/mL final in PNP): 35.5 min
TTP (time to peak) ([2]; FX (HTI) 10 μg/mL final in PNP): 11.17 min
mVRI (mean velocity rate index) ([2]; FX (HTI) 10 μg/mL final in PNP): 28.18 nM/min
LT (lag time) [2, 4]: 25.83 min
Peak [2, 4]: 8 nM
TTP (time to peak) [2, 4]: 53.67 min
mVRI (mean velocity rate index) [2, 4]: 0.29 nM/min
ETP (endogenous thrombin potential) ([2]; FX (HTI) 25 μg/mL in PNP): 1285 nM·min
LT (lag time) ([2]; FX (HTI) 25 μg/mL in PNP): 5.55 min
Peak ([2]; FX (HTI) 25 μg/mL in PNP): 118.82 nM
ST (start time) ([2]; FX (HTI) 25 μg/mL in PNP): 36.5 min
TTP (time to peak) ([2]; FX (HTI) 25 μg/mL in PNP): 11.06 min
mVRI (mean velocity rate index) ([2]; FX (HTI) 25 μg/mL in PNP): 21.56 nM/min
LT (lag time) [2, 8]: 29.09 min
Peak [2, 8]: 11.22 nM
TTP (time to peak) [2, 8]: 58.64 min
mVRI (mean velocity rate index) [2, 8]: 0.38 nM/min
ETP (endogenous thrombin potential) ([2]; FX (HTI) 100 μg/mL in PNP): 1327 nM·min
LT (lag time) ([2]; FX (HTI) 100 μg/mL in PNP): 5.88 min
Peak ([2]; FX (HTI) 100 μg/mL in PNP): 149.34 nM
ST (start time) ([2]; FX (HTI) 100 μg/mL in PNP): 35.5 min
TTP (time to peak) ([2]; FX (HTI) 100 μg/mL in PNP): 10.22 min
mVRI (mean velocity rate index) ([2]; FX (HTI) 100 μg/mL in PNP): 34.41 nM/min
LT (lag time) [2, 9]: 58.31 min
Peak [2, 9]: 1.77 nM
TTP (time to peak) [2, 9]: 62.15 min
mVRI (mean velocity rate index) [2, 9]: 0.46 nM/min
correction of thrombin generation of plasma overloaded with Rivaroxaban ([2]; FX up to 100 μg/ml (10 U/ml), Rivaroxaban 0.5 μg/mL): does not correct
increase of total quantity of thrombin generated versus normal plasma ([3]; 10 μg/mL of FX added to normal plasma, cephalin): 19%
correction of plasma overloaded with rivaroxaban ([3]; FX 10 μg/mL final, Rivaroxaban 0.35 μg/mL, intrinsic pathway): does not correct
ETP (endogenous thrombin potential) ([3]; FX (HTI) 10 μg/mL final in PNP): 1441 nM·min
LT (lag time) ([3]; FX (HTI) 10 μg/mL final in PNP): 17 min
Peak ([3]; FX (HTI) 10 μg/mL final in PNP): 225.75 nM
ST (start time) ([3]; FX (HTI) 10 μg/mL final in PNP): 35.5 min
TTP (time to peak) ([3]; FX (HTI) 10 μg/mL final in PNP): 20.17 min
mVRI (mean velocity rate index) ([3]; FX (HTI) 10 μg/mL final in PNP): 71.21 nM/min
